From patent US8530648B2, “Diaza-spiro[5.5]undecanes” (Novartis AG, priority 2009, dated 2013)

By UniProt entry, the sequences of proteins in these tests, tags left out.
UniProt O43614, whole entry: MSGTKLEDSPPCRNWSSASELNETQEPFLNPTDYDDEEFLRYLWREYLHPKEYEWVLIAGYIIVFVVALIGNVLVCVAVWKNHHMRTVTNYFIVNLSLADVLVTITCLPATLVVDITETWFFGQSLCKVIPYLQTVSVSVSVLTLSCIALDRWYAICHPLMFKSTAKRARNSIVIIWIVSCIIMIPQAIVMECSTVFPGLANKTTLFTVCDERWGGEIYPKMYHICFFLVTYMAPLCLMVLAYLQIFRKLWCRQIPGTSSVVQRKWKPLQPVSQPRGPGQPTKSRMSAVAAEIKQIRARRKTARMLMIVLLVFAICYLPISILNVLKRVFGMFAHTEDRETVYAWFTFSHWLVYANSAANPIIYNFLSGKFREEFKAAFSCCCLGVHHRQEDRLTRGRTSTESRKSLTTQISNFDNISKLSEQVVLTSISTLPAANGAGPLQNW
UniProt O43613, whole entry: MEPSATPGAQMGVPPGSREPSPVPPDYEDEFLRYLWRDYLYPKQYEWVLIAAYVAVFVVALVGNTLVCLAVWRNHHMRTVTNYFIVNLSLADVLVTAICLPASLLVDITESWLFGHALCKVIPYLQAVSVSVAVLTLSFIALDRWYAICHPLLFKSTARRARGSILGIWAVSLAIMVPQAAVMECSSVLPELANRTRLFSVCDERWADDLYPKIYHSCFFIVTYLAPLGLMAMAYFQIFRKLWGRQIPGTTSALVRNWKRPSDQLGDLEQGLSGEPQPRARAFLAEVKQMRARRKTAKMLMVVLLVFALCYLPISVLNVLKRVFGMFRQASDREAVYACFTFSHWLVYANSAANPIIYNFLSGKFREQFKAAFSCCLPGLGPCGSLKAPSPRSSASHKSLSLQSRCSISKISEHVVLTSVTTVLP

Columns and labels:
hOx2R [1] = biological target: T1, hOx2R (Homo sapiens (Human), UniProt O43614); experiment: Radioligand binding assay, [3H]-SB649868, hOx2R; conditions: read-out: Binding hOx2R Kd; radioligand [3H]-SB649868, competition
hOx1R [2] = biological target: T2, hOx1R (Homo sapiens (Human), UniProt O43613); experiment: Radioligand binding assay, [3H]-SB649868, hOx1R; conditions: read-out: Binding hOx1R Kd; radioligand [3H]-SB649868, competition
hOx1R [3] = biological target: T2, hOx1R; experiment: Calcium accumulation in cells (FLIPR), hOx1R; type: cell-based; conditions: read-out: FLIPR hOx1R Ki; inhibition of orexin A induced calcium accumulation, Cheng and Prusoff correction
hOx2R [4] = biological target: T1, hOx2R; experiment: Calcium accumulation in cells (FLIPR), hOx2R; type: cell-based; conditions: read-out: FLIPR hOx2R Ki; inhibition of orexin A induced calcium accumulation, Cheng and Prusoff correction

Compound	Kd (hOx2R [1]) [nM]	Kd (hOx1R [2]) [nM]	Ki (hOx1R [3]) [nM]	Ki (hOx2R [4]) [nM]
O=C1N(Cc2c[nH]c3ccccc23)CCCC12CCN(c1nccc(-n3cccn3)n1)CC2	41	143	259	32
O=C1N(Cc2c[nH]c3ccccc23)CCCC12CCN(c1nccc3ccccc13)CC2	–	–	1240	564
